The source of these data is PubChem BioAssay AID652048 (National Center for Advancing Translational Sciences (NCATS), 2013).

Protein sequences, listed by entry. Tags and fused reporters are not part of them.
UniProt P35462, whole entry: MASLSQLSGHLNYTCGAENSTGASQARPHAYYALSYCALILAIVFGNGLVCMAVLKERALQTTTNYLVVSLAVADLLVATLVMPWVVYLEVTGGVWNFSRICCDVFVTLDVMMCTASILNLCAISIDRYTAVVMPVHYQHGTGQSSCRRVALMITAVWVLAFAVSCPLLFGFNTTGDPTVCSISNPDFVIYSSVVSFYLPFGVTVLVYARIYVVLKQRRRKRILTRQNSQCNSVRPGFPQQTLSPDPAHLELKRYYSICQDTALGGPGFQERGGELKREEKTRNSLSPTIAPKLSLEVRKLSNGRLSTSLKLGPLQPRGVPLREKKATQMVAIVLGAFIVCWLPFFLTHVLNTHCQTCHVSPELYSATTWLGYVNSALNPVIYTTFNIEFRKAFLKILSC

“And” between values parts separate entries of the source, which are not always exact repeats. Identical values can stand only once. The entries are a selection whose mix differs from that of the whole data set. The source made the active and inactive calls. No stated cut-off is given here; in the data, active means max activation above about 30%; inactive means the rest.

This assay has as its target D(3) dopamine receptor (Homo sapiens) (UniProt P35462). As to the kind of experiment: qHTS of D3 Dopamine Receptor Agonist: qHTS. Further: 0% is about no effect. To be noted: D3R DiscoveRx beta-arrestin cells, luminescence, 90 min; stronger effect = higher value. The text has this:
D3 DARs represent a very important target for the treatment of several neuropsychiatric disorders. Indeed, one of the most promising therapeutic applications for the D3 DAR is in the area of addiction and related disorders. […] These findings have been observed with a number of addictive substances including cocaine, amphetamine, nicotine, and alcohol. […] Antagonism of the D3 DAR may also be therapeutic in the treatment of schizophrenia or psychosis. […] Since the D3 DAR is expressed in areas of the CNS associated with the control of mood and emotion, it has been hypothesized that selective antagonism of the D3 DAR may be effective in treating psychosis without inducing the motor side effects typically seen with D2 DAR antagonists.
This part of the project aims to discover novel agonist.
NIH Chemical Genomics Center [NCGC]
NIH Molecular Libraries Probe Centers Network [MLPCN]
Assay Submitter (PI): David Sibley, NINDS
Freshly passaged cells are plated in 1536 well white, solid bottom plates at a density of 1500 cells/well in 3microl of complete media. After an overnight incubation at 37 degrees C in 5% CO2, cells are loaded with 23nl of test compound from the compound library (as well as dopamine controls) using a 1536 pintool and incubated at 37 degrees C for 90 minutes. Two microliters of DiscoveRx reagent is then added to all cells, and they are incubated for an additional 30 - 60 minutes at room temperature. Following incubation, luminescence is measured on a ViewLux CCD-based luminometer reader using a 20 sec exposure time.
(In general: In qHTS, concentration-response curves come from the screen itself.)
With `CN(CCCl)CCCl`, the max activation is inactive: 3.73%.

Consider `CCC(=O)N(c1ccccc1)C1(COC)CCN(CCn2nnn(CC)c2=O)CC1`, for which the max activation was inactive: 5.82% and inactive: -9.63%.

For `CCC(=O)N(c1ccccc1)C1(COC)CCN(CCc2cccs2)CC1`, the max activation was inactive: -22.9% and inactive: -65%.
